One assay has as its system SET-2 and UKE-1 cells. Nature of the assay: SET-2/UKE-1 synergy assay. To be noted: ruxolitinib to CA 1 to 1 or 10 to 1, Fa=0.5. The assay is classed as cell-based. On the procedure: SET-2 and UKE-1 cells were co-treated with constant ratios of ruxolitinib to CA, 1 to 1 or 10 to 1, in a 96-well growth assay format with a range of 2-fold dose dilutions of compounds. SET-2 and UKE-1 cells were also treated with ruxolitinib alone or CA alone in a 2-fold dilution series. The Chou-Talalay combination index values at 50% growth inhibition (Fa=0.5) were determined using CalcuSyn software (see Chou, T. C. Cancer Res. 2010 Jan. 15; 70(2):440-6) (FIG. 5).

Protein sequences, listed by entry. Tags and fused reporters are not part of them. Lines headed by an entry give the natural chain unless they say otherwise; changes in a name come on top.
UniProt P49336: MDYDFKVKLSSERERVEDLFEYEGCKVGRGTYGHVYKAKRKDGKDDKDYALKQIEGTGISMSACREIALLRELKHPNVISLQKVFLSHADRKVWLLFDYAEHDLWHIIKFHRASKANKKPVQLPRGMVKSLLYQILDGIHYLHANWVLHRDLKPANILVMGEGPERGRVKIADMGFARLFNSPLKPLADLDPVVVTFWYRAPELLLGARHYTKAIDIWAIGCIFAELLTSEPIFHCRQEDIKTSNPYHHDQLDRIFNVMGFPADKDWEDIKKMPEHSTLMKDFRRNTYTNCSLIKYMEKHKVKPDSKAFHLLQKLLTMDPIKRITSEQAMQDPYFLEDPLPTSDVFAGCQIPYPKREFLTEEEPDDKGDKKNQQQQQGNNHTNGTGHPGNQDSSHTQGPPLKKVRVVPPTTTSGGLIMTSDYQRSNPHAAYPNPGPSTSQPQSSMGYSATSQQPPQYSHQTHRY

For assay [1], the system named is native kinases in MOLM-14 cell lysate. The conditions noted are these: 1000 nM. On the procedure:
Native kinome profiling was performed with MOLM-14 cell lysate according to the KiNativ Method by ActivX Biosciences. For each peptide quantified, the change in mass spectrometry signal for the treated samples relative to the signal for the control samples was expressed as percentage inhibition.

In a further assay the target is T1, CDK8/Cyclin C (Homo sapiens, UniProt P49336).
T1 construct: purchased ProQinase GmbH
Nature of the assay: In vitro radiometric protein kinase assay. The conditions noted are these: 1.0 μM ATP; FIG. 8. It is filed as biochemical.

For a further assay, the system named is 294 recombinant kinases. To be noted: 600 nM.

Regarding Cortistatin A, in the assay on SET-2 and UKE-1 cells, the “synergy with JAK1/2 inhibitor ruxolitinib, inhibition of proliferation (Chou-Talalay combination index)” value is reported as “synergizes”. In assay [1], the “kinase selectivity, native kinase % inhibition” value is given as “selectively inhibits CDK8/19”. The “inhibition of CDK8/Cyclin C kinase activity” value at CDK8/Cyclin C is “potently inhibits”. In addition, in the assay with 294 recombinant kinases, the “kinase selectivity, kinase activity percent remaining” value was “selectively inhibits CDK8/19”.

The record behind these values is patent US20180369230A1, “TARGETED SELECTION OF PATIENTS FOR TREATMENT WITH SPECIFIC CORTISTATIN DERIVATIVES” (President and Fellows of Harvard College, priority 2015, published 2018).
